Data as given in patent publication EP0516725B1, “NEW USE OF LINOMIDE (R)” (Pharmacia AB (reg.number 556131-9608), priority 1990, dated 1991).

Test system: SIVsm
Experiment: SIVsm infection of cynomolgus monkeys (body weight, CD4 cells, virus isolation, clinical state)
[1] = low dose (0.3 mg/kg bw x 2), monkeys L1-3, day 75 after challenge

With CN(C(=O)c1c(O)c2ccccc2n(C)c1=O)c1ccccc1 [Linomide®, N-phenyl-N-methyl-1,2-dihydro-4-hydroxy-1-methyl-2-oxo-quinoline-3-carboxamide] the “number of CD4+ lymphocytes in peripheral blood” value [1] was 0.92 x10⁹/l, the “number of CD4+ lymphocytes, % of start value” [1] was 70 % of start value and the “number or frequency of CD4 cells in infected monkeys” value (result in words, high dose (3 mg/kg bw x 2), monkeys L4-6) was “did not significantly alter”.
